# Laboratory results taken from PubChem BioAssay AID602332 (National Center for Advancing Translational Sciences (NCATS), 2012).
# Several values for one entry are separate records, joined by “and”; a condition that tells them apart may be missing. Identical values can stand only once. Only a part is listed here, and it is no random draw. Activity calls are given as the source filed them. Calls come from the whole dose curve; as a rule, active = well fitted activation curve with a large enough effect; inconclusive = small, poorly fitted or top-dose-only effect; inactive = no such curve, though single readings can be large or run the other way.
# Experiment: qHTS for Inducers of the Endoplasmic Reticulum Stress Response (ERSR) in Human Glioma: qHTS; note: % of control where 0% means no effect; nearly all actives have a fitted effect of over 35% in size
# Details: U87-MG GRP78 promoter luciferase reporter, 16 h; active compounds read high
row,SMILES,activation
1,COc1ccc(N/C(=N/P(=O)(N2CCOCC2)N2CCOCC2)N2CCOCC2)cc1,inactive: -3.35%
2,Cc1c2c(nc3ccccc13)SC(C(Cl)Cl)C2 (stereo unspecified),inactive: 3.14%
3,Cc1cc(=O)[nH]c(N[N+](=O)[O-])n1,inactive: -2.71%
4,O=C(OC1CN2CCC1CC2)C12CC3CC(CC(C3)C1)C2 (stereo unspecified),inactive: -3.38%
5,O=P1(N(CCCl)CCCl)Nc2ccccc2N1,inactive: 8.78%
6,O=P1(N(CCCl)CCCl)OCCCN1CCCl (stereo unspecified),inactive: -2.33%
7,COc1cc(I)ccc1[As](=O)(O)O,inactive: -1.4%
8,COc1ccc2nc(NP(=O)(c3ccccc3)c3ccccc3)sc2c1,inactive: -3.14%
9,ClCCSc1nnc(-c2cccnc2)o1,inactive: 4.92%
10,O=Cc1ccc(NCCCl)cc1,inactive: -3.46%
11,COC(=O)C1(C)COP(=O)(N2CCCCCC2)OC1 (stereo unspecified),inactive: -2.99%
12,CC(C)c1ccc(OP(=O)(Nc2ccccn2)Oc2ccccc2F)cc1 (stereo unspecified),inactive: -1.06%
13,O=[N+]([O-])c1cc([N+](=O)[O-])c(-c2ccn[nH]2)s1,inactive: -1.76%
14,CC(C)NC(=O)NP(=O)(Oc1ccccc1)Oc1ccccc1,inactive: 0.616%
15,O=C(OC1CN2CCC1CC2)c1cccc2[nH]cnc12 (stereo unspecified),inactive: 2.63%
16,CCN(CC)C(=S)SC(NC=O)C(Cl)(Cl)Cl (stereo unspecified),inactive: -0.511%
17,O=[N+]([O-])c1ccc(-c2cc([N+](=O)[O-])c(O)c([N+](=O)[O-])c2)cc1,inactive: -4.07%
18,COc1cc(C(=O)NCC2(N3CCOCC3)CCCCC2)ccc1OCC(C)C,inactive: -0.278%
19,O=[As](O)(c1ccc(O)cc1)c1ccccc1O,inactive: -3.95%
20,C[As](=O)(O)c1cccc(C(=O)O)c1,inactive: -5.1%
21,ClCCN(CCCl)c1ccc(CC2C=CC=C2)cc1,inactive: -1.37%
22,Cc1ccc(OP(=O)(Nc2ccc([N+](=O)[O-])cn2)Oc2ccc(C)cc2)cc1,inactive: -4.72%
23,CCOC(=O)Nc1cccc([As](=O)(O)O)c1,inactive: -0.986%
24,O=P(Nc1ccccn1)(c1cccc2ccccc12)c1cccc2ccccc12,inactive: 0.907%
25,Cc1cc(SC(NC=O)C(Cl)(Cl)Cl)ncn1 (stereo unspecified),inactive: 0.782%
26,O=[N+]([O-])c1ccc(Nc2ccc(Oc3ccc([N+](=O)[O-])cc3[N+](=O)[O-])cc2)c([N+](=O)[O-])c1,inactive: 5.42%

row,SMILES,activation
1,CCOC(=O)Nc1ccc([As](=O)(O)O)c(O)c1,inactive: -4.06%
2,O=C(O)C(O)c1ccc(N(CCCl)CCCl)cc1 (stereo unspecified),inactive: -2.65%
3,CC1CCNP(=O)(N(CCCl)CCCl)O1 (stereo unspecified),inactive: -3.6%
4,COP(=O)(OC)N1CC1c1ccccc1 (stereo unspecified),inactive: -3.29%
5,Cc1cc(SC(NC(=O)c2ccccc2)C(Cl)(Cl)Cl)nc(C(C)C)n1 (stereo unspecified),inactive: -0.584%
6,CCCCOc1ccc(C(=O)NCC2(N3CCCCC3)CCCCC2)cc1OC,inactive: 6.78%
7,CSc1ccc(Nc2c([N+](=O)[O-])cc([N+](=O)[O-])cc2[N+](=O)[O-])cc1,inactive: -8.89%
8,O=C(OC1CN2CCC1CC2)c1cccc([N+](=O)[O-])c1 (stereo unspecified),inactive: -3.57%
9,CCOC(=O)c1ccc(NC(=O)C(C)(CCl)SC)cc1 (stereo unspecified),inactive: 4.94%
10,CCC(C)N(CC(C)C)C(=S)SC(NC(C)=O)C(Cl)(Cl)Cl (stereo unspecified),inactive: -1.34%
11,CCOP(=O)(Nc1cccc2cccnc12)OCC,inactive: -1.53%
12,COC(=O)C1(C)COP(=O)(N2CCCC2)OC1 (stereo unspecified),inactive: -3.83%
13,COP1(=S)c2c(C)nn(CCC#N)c2N=C(c2ccc(F)cc2)N1C (stereo unspecified),inactive: -2.9%
14,O=C(O)C(=O)c1ccc(N(CCCl)CCCl)cc1,inactive: -1.32%
15,O=C(Nc1ccncc1[N+](=O)[O-])c1ccc([N+](=O)[O-])cc1[N+](=O)[O-],inactive: -6.06%
16,O=C(COc1ccccc1)OC1CN2CCC1CC2 (stereo unspecified),inactive: -0.751%
17,CCN(/C(=N/P(=O)(N1CCOCC1)N1CCOCC1)N1CCOCC1)c1ccc(OC)cc1,inactive: -3.65%
18,C[N+]1=C2C=CC=CC=C2SC12C([N+](=O)[O-])=CC([N+](=O)[O-])=C[C-]2[N+](=O)[O-] (stereo unspecified),inactive: -9.66%
19,Nc1ccc([As](=O)(O)c2ccc(N)cc2)cc1,inactive: 0.208%
20,CC(=O)C1=CCCC2CCC1N2 (stereo unspecified),inactive: -3.88% and inactive: -2.47%
21,CC1CCN(C(=O)Oc2c(Cl)cc(Cl)c3cccnc23)CC1,inactive: 11.8%
22,c1cc(-c2nn[nH]n2)ccc1-c1nn[nH]n1,inactive: -1.86%
23,CN(C)C(=O)OCCc1n(C)cc[n+]1C,inactive: -1.79%
24,CC(C)c1nc(Nc2ccccc2)n(P(=O)(N(C)C)N(C)C)n1,inactive: -2.39%
25,COc1cc([N+](=O)[O-])c([N+](=O)[O-])cc1OC,inactive: -4.57%
26,CC(C)=N/N=C(\N)N[N+](=O)[O-],inactive: -6.93%

row,SMILES,activation
1,COc1ccc(C2=NCC(CBr)S2)cc1 (stereo unspecified),inactive: -0.844%
2,CCc1nc2c(n1)c1c(non1O)c1c2no[n+]1[O-],inactive: -15.6%
3,O=[N+]([O-])c1cc([N+](=O)[O-])c(CCNc2ccccc2)c([N+](=O)[O-])c1,inactive: -4.6%
4,Cc1ccc(NP(=O)(Oc2ccccc2)Oc2ccccc2)nc1,inactive: -4.15%
5,O=[N+]([O-])c1cccc2n[nH]nc12,inactive: -2.53%
6,CC(=O)N1C2C3N(C(C)=O)C1C1N(C(C)=O)C(C(N1C(C)=O)N3C(C)=O)N2C(C)=O,inactive: -0.985%
7,O=[N+]([O-])c1ncn(CCn2ncnc2[N+](=O)[O-])n1,inactive: -2.52%
8,CC(C)(C)C(=O)NC(Sc1ccncn1)C(Cl)(Cl)Cl (stereo unspecified),inactive: -6.2%
9,O=C(O)CNc1ccc([As](=O)(O)O)cc1,inactive: -2.52%
10,COC(=O)C1(C)COP(=O)(Nc2ccccc2)OC1 (stereo unspecified),inactive: -6.6%
11,O=[N+]([O-])c1cccc(NC2=NCC(CBr)S2)c1 (stereo unspecified),inactive: -3.48%
12,Cc1cc(C=O)ccc1N(CCCl)CCCl,inactive: 0.0407%
13,O=P1(N(CCCl)CCCl)OCCCS1 (stereo unspecified),inactive: -4.67%
14,O=P(/N=c1/nc(-c2ccccc2)n(-c2ccccc2)s1)(Nc1ccccc1)Nc1ccccc1,inactive: 11%
15,O=C(Nc1cc([As](=O)(O)O)ccc1O)c1ccccc1,inactive: -5.04%
16,Nc1c(O)cc([N+](=O)[O-])cc1[N+](=O)[O-],inactive: -3.23%
17,Nc1cccc2ccc([As](=O)(O)O)cc12,inactive: 0.563%
18,CCN(N=Nc1nonc1N)c1nonc1N,inactive: -5.61%
19,O=P(Nc1nc2ccc(Cl)cc2s1)(c1ccccc1)c1ccccc1,inactive: 0.644%
20,CN(C)P(=O)(N(C)C)n1c(Nc2ccccc2)nnc1-c1ccccc1,inactive: 3.57%
21,CCCC1OP(N)(=O)OCC1CC (stereo unspecified),inactive: -1.56%
22,CC(=O)Nc1ccc([As](=O)(O)O)cc1,inactive: -4.09%
23,O=C(O)c1ccccc1[As](=O)(O)O,inactive: -11.1%
24,Cc1ccc(NP(=O)(Oc2ccccc2F)Oc2ccccc2F)nc1,inactive: -2.38%
25,CN(C(=O)Cc1ccc(Cl)c(Cl)c1)[C@H]1CCCC[C@@H]1N1CCCC1,inactive: -3.85% [middle of 11 runs]
26,Cc1cc(SC(NC(=O)c2ccc(F)cc2)C(Cl)(Cl)Cl)ncn1 (stereo unspecified),inactive: -6.16%

row,SMILES,activation
1,CCOP(=O)(Nc1ccccc1)OCC,inactive: -6.25%
2,O=C(NC(Sc1ccncn1)C(Cl)(Cl)Cl)c1ccccc1 (stereo unspecified),inactive: -2.63%
3,Oc1ccccc1CNc1ccccn1,inactive: -1.58%
4,Nc1cc(N)c2nonc2c1[N+](=O)[O-],inactive: -4.54%
5,CC(C)CC(=O)NC(Sc1ccc(Cl)cc1)C(Cl)(Cl)Cl (stereo unspecified),inactive: -1.21%
6,O=[N+]([O-])C1C(O)C(O)C([N+](=O)[O-])C(O)C1O (stereo unspecified),inactive: 2.57%
7,Cc1ccc(N/C(=N/P(=O)(N2CCOCC2)N2CCOCC2)N2CCOCC2)cc1,inactive: 1.04%
8,CN(C(=O)Cc1ccc(Cl)c(Cl)c1)[C@H]1CCCC[C@H]1N1CCCC1,inactive: -1.25%
9,NC(=O)c1cc([N+](=O)[O-])cc([N+](=O)[O-])c1N,inactive: 0.208%
10,O=[N+]([O-])c1cc2c(cc1[N+](=O)[O-])OCO2,inactive: -10%
11,CN1CCCC(OC(=O)C(c2ccccc2)c2ccccc2)C1 (stereo unspecified),inactive: -7.79%
12,Clc1ccc(Cl)c(NC2=NCC(CBr)S2)c1 (stereo unspecified),inactive: -2.4%
13,Cc1ccc(OP(=O)(Nc2nccs2)Oc2ccc(C)cc2)cc1,inactive: -2.04%
14,COc1ccccc1OP(=O)(Nc1ccc(C)cn1)Oc1ccccc1OC,inactive: 1.04%
15,C[C@H]1OP(=O)(Oc2ccccc2)C[C@@H]2O[C@@H]21 (stereo partly specified),inactive: -1.19%
16,C[C@@H]1C=CCP(=O)(Oc2ccccc2)O1 (stereo partly specified),inactive: -2.38%
17,Cc1ccccc1CN(C)C(=O)COC(=O)C(O)(c1ccccc1)c1ccccc1,inactive: -0.609%
18,COC(=O)C1(C)COP(=O)(NCc2ccccc2)OC1 (stereo unspecified),inactive: -0.719%
19,CC(=O)c1ccc(N2CC2c2ccncc2)cc1 (stereo unspecified),inactive: -3.86%
20,N#C/C(=C\c1ccc(N(CCBr)CCBr)cc1)C(N)=O,inactive: 0.355%
21,CC(=O)Nc1ccc(Oc2c([N+](=O)[O-])cc([N+](=O)[O-])cc2[N+](=O)[O-])cc1,inactive: -3.82%
22,CC(=O)Nc1ccc([As](=O)(O)O)c(O)c1,inactive: 2.96%
23,CCOc1ccc(C2=NCC(CBr)S2)cc1 (stereo unspecified),inactive: -0.975%
